Molecular target: T1, hSUMO-1 18-97 (Homo sapiens, UniProt P63165)
T1 construct: 18-97; His-TEV (N, cleaved yes); made in house
Assay: Fluorescence anisotropy competition assay, FITC-peg-SIM tracer / SUMO
Type: binding
Protocol: hSUMO-1 18-97 was expressed and purified as previously described from a pet19b His-TEV-SUMO-1 (18-97) construct with cleavage of the tag using TEV protease.4 […]
Fluorescence anisotropy assays were performed in 384-well plates (Greiner Bio-one). Each experiment was run in triplicate and the fluorescence anisotropy measured using a Perkin Elmer EnVisionTM 2103 MultiLabel plate reader, with excitation at 480 nm (30 nm bandwidth), polarised dichroic mirror at 505 nm and emission at 535 nm (40 nm bandwidth, S and P polarised). All assays were performed in 20 mM Tris, 100 mM NaCl, 0.1 mM DTT, pH 7.5 unless otherwise stated and data analysed following previously published methods.
Fluorescence anisotropy data was processed as described previously.[2] […]
For direct titration the average anisotropy (across three experimental replicates) and the standard deviation of these values were then calculated and fit to a logistic model using OriginPro 9.0 to determine the maximum and minimum anisotropies then the fraction bound calculated (Equation 3) and used to determine Kd (equation 4) […]
For competition experiments, the anisotropies were determined as for the direct titration and then plotted against inhibitor concentration and fit (equation 5) to determine the IC50 and error […]

The chains behind the UniProt entries cited, without tags or fusion partners. Residues count along the entry.
UniProt P63165, 18-97: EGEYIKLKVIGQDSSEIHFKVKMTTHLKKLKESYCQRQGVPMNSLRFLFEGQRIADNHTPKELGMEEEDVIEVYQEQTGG

Compound `CC[C@H](C)[C@H](NC(=O)[C@H](CCC(=O)O)NC(=O)[C@H](CC(N)=O)NC(=O)[C@H](CC(=O)O)NC(C)=O)C(=O)N[C@@H](CCC(=O)O)C(=O)N[C@H](C(=O)N[C@H](C(=O)N[C@H](C(=O)N[C@H](C(=O)N[C@@H](Cc1c[nH]c2ccccc12)C(=O)N[C@@H](CCC(=O)O)C(=O)N[C@@H](CCCCN)C(=O)N[C@@H](CCCCN)C(N)=O)C(C)C)[C@@H](C)CC)[C@@H](C)CC)C(C)C` [SIM2705–2717] has an IC50 of 21.9 ± 0.3 µM.

From publication PMC8495968, “Towards optimizing peptide-based inhibitors of protein–protein interactions: predictive saturation variation scanning (PreSaVS)” (RSC Chemical Biology, 2021)
